Measurements from patent EP4847503A1, “TETRAZOLE COMPOUND, PHARMACEUTICAL COMPOSITION THEREOF AND USE THEREOF” (dated 2026).

By UniProt entry, the sequences of proteins in these tests, tags left out.
UniProt P50052, whole entry: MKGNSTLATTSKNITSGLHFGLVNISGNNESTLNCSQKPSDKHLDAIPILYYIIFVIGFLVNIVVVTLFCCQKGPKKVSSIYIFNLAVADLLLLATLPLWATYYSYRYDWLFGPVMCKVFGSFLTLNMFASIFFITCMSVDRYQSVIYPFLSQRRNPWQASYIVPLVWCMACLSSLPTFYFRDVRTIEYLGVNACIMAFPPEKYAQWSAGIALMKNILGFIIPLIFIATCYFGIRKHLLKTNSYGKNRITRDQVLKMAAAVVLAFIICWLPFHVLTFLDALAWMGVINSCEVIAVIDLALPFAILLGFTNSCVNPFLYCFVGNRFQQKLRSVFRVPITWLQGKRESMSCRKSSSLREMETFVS

Key:
AT2 receptor = AT2 receptor (Homo sapiens, UniProt P50052); assay: AT2R Binding assay (Tag-lite HTRF, affinity for AT2 receptor); details: read-out: AT2R IC50; Tag-lite Angiotensin AT2 labeled Cells, 25 °C, 1 hour
[1] = Pharmacokinetic behavior in mice; details: ICR mice; for F(%): intragastric administration 5 mg/kg vs intravenous 1 mg/kg
Protocol: Test Example 3 Study on the pharmacokinetic behavior of the compounds of the present invention in mice
(§1) Healthy ICR mice (SPF grade, source: Beijing Vital River Laboratory Animal Technology Co., Ltd.), 3 animals, male, weighing 18-25 g, were intravenously injected with 1 mg/kg of the compound at a dosing volume of 5 mL/kg, formulated with 5% DMSO + 10% Solutol + 85% Saline (w/v). Animals were fasted prior to the test.
as §1, with “were intragastrically administered” for “were intravenously injected”, “with 5” for “with 1”, “of 10” for “of 5”
Blood samples (approx. 0.05 mL each) were collected via the cheek at 5 min, 15 min, 30 min, 1 h, 2 h, 4 h, 6 h, 8 h, and 24 h after intravenous administration, and at 5 min, 15 min, 30 min, 1 h, 2 h, 4 h, 6 h, 8 h, and 24 h after intragastric administration, respectively, using sodium heparin as an anticoagulant. After collection, the blood samples were placed on ice, and the plasma was separated by centrifugation within 1 hour (centrifugation conditions: 6000 g, 3 minutes, 2-8 °C). The concentration of the compound in plasma was determined by liquid chromatography-tandem mass spectrometry. Plasma samples were stored in a -80 °C freezer before analysis. Pharmacokinetic parameters were calculated using Phoenix WinNonlin 8.2.0 based on plasma concentration data at different time points.

[2] = intragastric administration 5 mg/kg

Row | Structure (SMILES) | IC50 (AT2 receptor) [nM] | AUClast [1, 2] [ng·h/mL] | Cmax [1, 2] [ng/mL] | T1/2 [1, 2] [h] | F(%) [1] [%] | AUClast ([1]; intravenous injection 1 mg/kg) [ng·h/mL] | CL ([1]; intravenous injection 1 mg/kg) [mL/min/kg] | Cmax ([1]; intravenous injection 1 mg/kg) [ng/mL] | Vss ([1]; intravenous injection 1 mg/kg) [L/kg]
1 | CC(C)Cc1cc(NC2CC(F)(F)C2)c(-c2nn[nH]n2)c(N2CCN(Cc3cccnn3)[C@@H](C)C2)c1 | 1.9 | 12988 | 10922 | 1.3 | 91.7 | 2832 | 5.82 | 4001 | 0.767
2 | CC(C)Cc1cc(F)c(-c2nn[nH]n2)c(N2CCN(Cc3cccnn3)[C@@H](C)C2)c1 | – | 4812 | 4373 | 3.3 | 31.7 | 3043 | 5.48 | 4817 | 0.212
